Active and inactive are the calls of the source. The rule behind the calls is not given here.
Tests used:
[1] = molecular target: Signal transducer and activator of transcription 6 (Homo sapiens) (UniProt P42226); assay: Inhibition of human STAT6 expressed in BEAS2B cells assessed as IL4-induced eotaxin-3 secretion at 10 uM after 24 hrs by ELISA
[2] = molecular target: Signal transducer and activator of transcription 6 (Homo sapiens) (UniProt P42226); assay: Inhibition of human STAT6 expressed in BEAS2B cells assessed as inhibition of IL4-induced STAT6 transcriptional activation

SMILES	inhibition [1]	inhibition [2]
CN(CCc1ccccc1)C(=O)c1csc2c1CCC/C2=N/O	inactive	
CC(C)[C@@H](C)NC(=O)c1cc(-c2cc3ccccc3s2)cc(C(=O)NCCc2ccccn2)n1	inactive	Active
